## Measured affinities in a library of Ab-91 heavy chain variants

The measurements come from Engelhart et al. 2022 (doi:10.1038/s41597-022-01779-4) through the FLAb antibody collection.

The target is the same throughout: PDVDLGDISGINAS, from the HR2 region of SARS-CoV-2 spike.

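The starting antibody came from a phage panning campaign against this peptide. In library AAYL51, one, two or three CDR residues were substituted; doubles and triples were drawn at random. Affinity was read by AlphaSeq, a pooled yeast mating assay with surface-displayed partners. After mating in shaken culture at 30 °C for 16 h, diploids were selected and their barcode pairs sequenced. Read counts were normalised to the haploid input and turned into Kd by a linear fit to BCL2-family pairs of known affinity, for each replicate. There are three technical replicates.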

Parent: Ab-91, a human scFv built as VL, the linker GGGGSGGGGSGGGGS, VH. Only the CDRs of the heavy chain vary.
VL: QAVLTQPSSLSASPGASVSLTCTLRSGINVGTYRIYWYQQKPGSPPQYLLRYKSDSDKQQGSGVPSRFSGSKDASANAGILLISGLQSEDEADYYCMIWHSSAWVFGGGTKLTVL
VH: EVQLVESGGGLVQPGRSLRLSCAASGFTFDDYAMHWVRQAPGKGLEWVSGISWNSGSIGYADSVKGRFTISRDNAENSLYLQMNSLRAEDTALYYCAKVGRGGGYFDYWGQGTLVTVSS

Positions count from residue 1 of the parent VH; G26P puts P in place of G.
Every variant below is changed at G26 of the VH (sequential numbering).
Values are apparent Kd, the geometric mean of the replicates that gave a signal; lower means stronger binding.
An entry "not detected" has no value in the source: the pair was not observed among the diploids in any replicate. This suggests poor binding but is not conclusive.

changes,Kd (apparent),replicates with signal
G26P+A33L+H35N,210 µM,3/3
G26E+Y105H,not detected,0/3
G26I+D31K+G50V,26 µM,2/3
G26A+A61N+G103W,99 µM,1/3
G26Y+M34C+G59C,not detected,0/3
G26F+D107R,1.0 mM,1/3
G26L+Y32S,58 µM,3/3
G26C+A61Q+G100H,8.1 µM,1/3
G26I+F29W,21 µM,1/3
G26C+F27K+G104H,not detected,0/3
G26N+S63G+Y105A,140 µM,2/3
G26I+H35Y+I51P,not detected,0/3
G26V+Y32D+G102T,2.6 µM,1/3
G26W+F29V+G104K,27 µM,1/3
G26P+G50Q+G56V,not detected,0/3
G26R+F27E+G102C,760 µM,1/3
G26T+N54E+V64H,not detected,0/3
G26P+D30S+S52V,not detected,0/3
G26H+A61G+V99S,100 µM,2/3
G26L+H35C+Y60L,not detected,0/3
G26P+S52R+G103K,20 µM,1/3
G26E+F27Q+S55E,1.0 mM,1/3
G26P+D31I+G102F,18 µM,3/3
G26H+G50Q+G59I,380 nM,1/3
G26E+D30P+W53A,55 µM,3/3
G26E+Y32D+G50A,not detected,0/3
G26H+I51L+V99C,not detected,0/3
G26Y+Y32S+V99K,320 µM,2/3
G26A+D62W+G104T,not detected,0/3
G26K+F29D+A33F,59 µM,2/3
G26K+G56N+K65H,24 µM,1/3
G26I+F27R+Y32W,not detected,0/3
G26I+S57W+S63G,46 µM,1/3
G26D+G56L+I58G,130 µM,2/3
G26D+G104E,220 µM,3/3
G26Y+T28C+D62E,6.9 µM,2/3
G26E+Y60G,not detected,0/3
G26P+G50H+V99G,not detected,0/3
G26E+R101E+F106K,not detected,0/3
G26V+D31L+I51T,not detected,0/3
G26E+G102K+G103C,61 µM,3/3
G26I+D30F+F106V,not detected,0/3
G26M+K65A+G102V,not detected,0/3
G26A+H35E+S52K,360 nM,1/3
G26A+G103F,not detected,0/3
G26I+Y60D+D62F,13 µM,1/3
G26V+H35E+G59T,89 µM,1/3
G26W+M34T+G50L,not detected,0/3
G26Q+T28E+I58P,not detected,0/3
G26D+Y32I+V64D,43 µM,2/3
G26Y+D30L+I58T,not detected,0/3
G26N+G59W+G100P,not detected,0/3
G26N+Y32W+W53T,not detected,0/3
G26M+S52T+F106Q,2.4 µM,1/3
G26T+G50C+G59S,27 µM,2/3
G26A+I51S+R101M,120 µM,3/3
G26Y+Y108K,7.4 µM,1/3
G26D+H35Q+V99A,11 nM,3/3
G26R+M34Y+G50K,40 µM,2/3
G26Y+N54T+G59L,18 µM,1/3
G26Y+F27N+G103L,not detected,0/3
G26C+D30S+I51R,not detected,0/3
G26P+G59M,not detected,0/3
G26A+F27R+G59M,56 µM,2/3
G26H+W53P+N54G,not detected,0/3
G26R+F27A,3.3 µM,1/3
G26D+G100L+Y108Q,not detected,0/3

The last 5 entries again:

{"changes": "G26P+G59M", "Kd (apparent)": "not detected", "replicates with signal": "0/3"}
{"changes": "G26A+F27R+G59M", "Kd (apparent)": "56 µM", "replicates with signal": "2/3"}
{"changes": "G26H+W53P+N54G", "Kd (apparent)": "not detected", "replicates with signal": "0/3"}
{"changes": "G26R+F27A", "Kd (apparent)": "3.3 µM", "replicates with signal": "1/3"}
{"changes": "G26D+G100L+Y108Q", "Kd (apparent)": "not detected", "replicates with signal": "0/3"}

Empty control strains, which show no peptide, gave a signal in 21% of pairings with library AAYL51; the median was 34 µM and 95% of these signals were weaker than 1.8 µM. No background was subtracted.